# Results published in patent US20220389009A1, “SUBSTITUTED 1,6-NAPHTHYRIDINE INHIBITORS OF CDK5” (Goldfinch Bio, Inc., priority 2019, published 2022).
# Amino acid sequences for entries named in this document (tags omitted). Residues count along the entry.
# UniProt Q00535, whole entry: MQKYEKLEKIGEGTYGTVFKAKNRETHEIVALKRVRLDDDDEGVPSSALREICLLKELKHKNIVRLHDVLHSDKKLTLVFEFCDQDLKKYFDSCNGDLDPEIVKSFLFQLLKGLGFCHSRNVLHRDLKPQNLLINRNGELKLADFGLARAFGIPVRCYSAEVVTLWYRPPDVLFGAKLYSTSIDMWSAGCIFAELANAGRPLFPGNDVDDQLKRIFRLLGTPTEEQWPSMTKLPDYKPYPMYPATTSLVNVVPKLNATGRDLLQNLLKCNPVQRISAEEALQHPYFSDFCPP
# UniProt Q15078, 99-307 partner limits assumed: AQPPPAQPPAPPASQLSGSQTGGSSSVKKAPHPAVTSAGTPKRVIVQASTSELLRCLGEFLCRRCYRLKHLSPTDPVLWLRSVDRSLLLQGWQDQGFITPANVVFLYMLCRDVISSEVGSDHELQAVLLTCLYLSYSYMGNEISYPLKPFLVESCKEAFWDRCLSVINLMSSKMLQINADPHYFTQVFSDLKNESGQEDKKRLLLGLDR
# What was measured:
# CDK2/CycA2 = CDK2/CycA2 (Homo sapiens, UniProt P24941); assay: CDK2 mobility shift assay (enzymatic activity of CDK2/CycA2); details: read-out: CDK2 IC50; 1.25 nM CDK2/CycA2, 37 μM ATP, FL Peptide 18, 120 min at room temperature
# CDK5/p25 = CDK5/p25 (Homo sapiens, UniProt Q00535); assay: CDK5 mobility shift assay (enzymatic activity of CDK5/p25)
structure (smiles),measurement,setting,value
O=C(O)CN(c1ccc2cnc(Nc3ccc(-n4ccc(CO)n4)cc3F)cc2n1)C1CCN(CCO)CC1,IC50,CDK2/CycA2,100 to 1000 nM
same,CDK5/CDK2 specificity,CDK5/p25; fold more active against CDK5 than CDK2,++ (greater than 10-fold and less than or equal to 100-fold more active against CDK5 than CDK2)
same,IC50,"CDK5/p25; read-out: CDK5 IC50, 0.154 nM CDK5/p25, FL peptide 29, 60 min at room temperature",< 10 nM
